# Molecular target: G3BP1 (human), Q13283
# Test: ITC at 25 °C, peptide titrated into G3BP1
row,Binder,Kd [nM]
1,LTFGDFDEHEASGITFGDFDDW (modifications not checked) [G3BPi spacer peptide without CPP],1500
2,LTFGDFDEHEALASGITFGDFDDW (modifications not checked) [G3BPi spacer2 peptide without CPP],4400

# From patent publication EP4269424A1, “NOVEL ANTIVIRAL COMPOUNDS AND USE THEREOF” (priority 2022, dated 2023)
